# Assay: Luminescence lifetime measurements
# Assay type: physicochemical
# Conditions: air saturated CH3CN, excitation at 355 nm
# Protocol: For the determination of the lifetimes, the samples were prepared in an air saturated and in a degassed CH3CN solution with an absorbance of 0.2 at 355 nm. This solution was irradiated in fluorescence quartz cuvettes (width 1 cm) using a NT342B Nd-YAG pumped optical parametric oscillator (Ekspla) at 355 nm. The emission signal was focused and collected at right angle to the excitation pathway and directed to a Princeton Instruments Acton SP-2300i monochromator. As a detector a R928 photomultiplier tube (Hamamatsu) has been used.
substance,measurement,value
"[Ru(bipy)2((E,E′)-4,4′-Bis[p-(N,N-methoxy)styryl]-2,2′-bipyridine)][PF6]2 [Compound 7]",τ/ns air (Lifetime),96 ns
